Reference: article PMC11098114 (Proceedings of the National Academy of Sciences of the …, 2024)

Target: the molecule itself
Test: SEC

B1: 3×Lys-MxEnc (natural protein, Myxococcus xanthus)
chain: MPDFLGHAENPLREEEWARLNETVIQVARRSLVGRRILDIYGPLGAGVQTVPYDEFQGVSPGAVDIVGEQETAMVFTDARKFKTIPIIYKDFLLHWRDIEAARTHNMPLDVSAAAGAAALCAQQEDELIFYGDARLGYEGLMTANGRLTVPLGDWTSPGGGFQAIVEATRKLNEQGHFGPYAVVLSPRLYSQLHRIYEKKKVLEIETIRQLASDGVYQSNRLRGESGVVVSTGRENMDLAVSMDMVAAYLGASRMNHPFRVLEALLLRIKHPDAICTLEGAGATERR
  binding result: binds
